Assay results as given in PMC3852005 (2013).
Where no end group is shown, it is not given here.

T1: FxFG Nup repeat peptide (also: chloride salt)
T1 chain: DSGFSFGSK

B1: G3BP1 NTF2-like domain 1-139 (protein)
chain: MVMEKPSPLLVGREFVRQYYTLLNQAPDMLHRFYGKNSSYVHGGLDSNGKPADAVYGQKEIHRKVMSQNFTNCHTKIRHVDAHATLNDGVVVQVMGLLSNNNQALRRFMQTFVLAPEGSVANKFYVHNDIFRYQDEVFG
B2: G3BP1 NTF2-like domain 1-139 (protein)
chain: MVMEKPSPLLVGREAVRQYYTLLNQAPDMLHRFYGKNSSYVHGGLDSNGKPADAVYGQKEIHRKVMSQNFTNCHTKIRHVDAHATLNDGVVVQVMGLLSNNNQALRRFMQTFVLAPEGSVANKFYVHNDIFRYQDEVFG

Target: T1, FxFG Nup repeat peptide
Experiment: ITC

Binder	Kd [µM]
B1	115
B2	670
